This is an account of results in patent publication US20060111447A1, “Inhibiting progressive cognitive impairment” (priority 2002, published 2006).

The data set has as its system CHO cells. The following applies: cells of FIG. 10A, untreated or various concentrations of nimesulide.

Molecules are shown by their SMILES.

Take `CS(=O)(=O)Nc1ccc([N+](=O)[O-])cc1Oc1ccccc1` [nimesulide, 4-nitro-2-phenoxymethanesulfonanilide]: the “cell viability (MTT assay)” value is “equal viability”.
